Test results published in PubChem BioAssay AID651640 (Broad Institute, 2012).
Hit rate of the full screen: of about 350,000 compounds, about 6,000 (1.7%) were called active. Listed are the inconclusive results; actives and inactives stand elsewhere. Cut-off read from the data, not from the text of the source: active = CPE inhibition above about 20% (passing the limit was not always enough); inconclusive = no clear call, values can overlap the other calls; tested in BHK-21 cells.

Assay: inhibitors of DENV2 cytopathic effect, primary screen, cell-based, plate reader, single concentration (AID 651640);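 note: 0% = median of neutral control wells and 100% = median of positive control wells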
Conditions: DENV2-infected cells, cytopathic effect rescue, at 9.99 µM, stronger effect = higher value

Compound	CPE inhibition
Cc1ccc(S(=O)(=O)N(CCCN)CCCc2c(C)nc(N)[nH]c2=O)cc1	inconclusive: 20.5%
COc1ccccc1CNC(=O)COC(=O)C(O)(c1ccccc1)c1ccccc1	inconclusive: 46.6%
COc1cc(C(=O)NCC2(N3CCOCC3)CCCCC2)ccc1OCC(C)C	inconclusive: 21.5%
O=P1(N(CCCl)CCCl)OCCCN1CCCl (configuration not stated)	inconclusive: 41.8%
CCn1c(=O)n(C2CCN(CC3CCCCCCC3)C[C@H]2CO)c2ccccc21 (some centres not stated)	inconclusive: 100%
O=C(OC1CN2CCC1CC2)c1ccccc1 (configuration not stated)	inconclusive: 21.3%
CCc1cc(O)c([N+](=O)[O-])c(C)c1[N+](=O)[O-]	inconclusive: 24.5%
